Laboratory results: PMC3723849 (PLoS ONE, 2013)

The chains behind the UniProt entries cited, without tags or fusion partners. Residues count along the entry.
UniProt Q04609, 44-750: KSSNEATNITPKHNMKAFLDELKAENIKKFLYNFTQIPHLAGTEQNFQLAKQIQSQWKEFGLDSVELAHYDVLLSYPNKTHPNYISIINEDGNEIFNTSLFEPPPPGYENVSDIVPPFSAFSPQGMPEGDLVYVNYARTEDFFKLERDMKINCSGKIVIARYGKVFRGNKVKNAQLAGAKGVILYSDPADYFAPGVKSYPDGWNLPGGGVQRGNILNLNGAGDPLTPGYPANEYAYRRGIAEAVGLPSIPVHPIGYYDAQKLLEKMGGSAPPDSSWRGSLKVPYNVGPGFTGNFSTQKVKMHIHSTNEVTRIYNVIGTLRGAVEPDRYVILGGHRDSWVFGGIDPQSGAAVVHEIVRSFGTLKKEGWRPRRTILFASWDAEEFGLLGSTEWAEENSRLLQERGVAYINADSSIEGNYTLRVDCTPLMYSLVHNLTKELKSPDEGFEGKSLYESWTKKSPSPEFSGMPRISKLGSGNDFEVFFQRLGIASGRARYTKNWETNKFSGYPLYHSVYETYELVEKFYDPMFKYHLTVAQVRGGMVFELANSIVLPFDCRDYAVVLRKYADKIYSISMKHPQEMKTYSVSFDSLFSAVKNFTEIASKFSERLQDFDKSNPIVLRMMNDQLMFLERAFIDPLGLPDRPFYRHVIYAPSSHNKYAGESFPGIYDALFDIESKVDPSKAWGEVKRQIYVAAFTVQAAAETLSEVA

Tests used:
[1] = target: T1, His-tagged PSMA (PSMA-His6), soluble ectodomain of prostate-specific membrane antigen (human, UniProt Q04609 44-750); assay: enzyme inhibition assay; PSMA-His6 pre-incubated with peptide (37°C, 30 min, TBS), then NAAG substrate added; released glutamate read with the Amplex Red kit; Ki from the Cheng-Prusoff equation with KM = 0.13 µM and 1 µM NAAG; conditions: both partners purified
T1 construct: prostate-specific membrane antigen (PSMA), human, soluble ectodomain; also called soluble PSMA; poly-histidine tagged PSMA; source: bought: R&D Systems

[2] = target: T1, His-tagged PSMA (PSMA-His6), soluble …; assay: cell-based or functional assay

B1: Peptide 562 (peptide)
peptide: SHSFSVGSGDHSPFT
notes: 15-mer from phage clones D, H; Made on Rink amide resin, so a C-terminal amide is to be expected (surmised); also called 562 monomer; source: synthetic peptide (HPLC purified)
Ki [1]: 76 µM | IC50 of inhibition of NAAG hydrolysis by PSMA-His6 (Amplex Red glutamate assay, 1 µM NAAG) [2]: 661 µM
